## Permeability data for macrocyclic peptides

Source: CycPeptMPDB (Li et al. 2023), which took these values from Townsend et al. 2020, doi:10.26434/chemrxiv.13335941.v1.

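The data file gives no further conditions (lipid, pH, time, direction or concentration), and values from different papers need not be comparable. Other peptides of the study may be missing here. Entries at the database's floor value (log10 P of -10) are not listed.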

PAMPA is the parallel artificial membrane permeability assay, which has no cells and reads passive diffusion.
Values are log10 P with P in cm/s, so -5 is more permeable than -7.

structure (SMILES),PAMPA (log10 cm/s)
CC(C)C[C@@H]1NC(=O)[C@H](C)N(C)C(=O)[C@H](Cc2ccccc2)NC(=O)[C@H](CC(C)C)N(C)C(=O)[C@H]2CCCN2C(=O)[C@H](CC(C)C)NC1=O,-5.43
CCCN1CC(=O)N[C@@H](CC(C)C)C(=O)N[C@H](CC(C)C)C(=O)N2CCC[C@H]2C(=O)N(Cc2ccccc2)CC(=O)N[C@@H](Cc2ccccc2)C1=O,-5.59
CC(C)C[C@H]1NC(=O)[C@H]2CCCN2C(=O)[C@H](CC(C)C)N(C)C(=O)[C@@H](CC(C)C)NC(=O)[C@H](C)NC(=O)[C@H](Cc2ccccc2)NC1=O,-5.72
CC(C)C[C@H]1NC(=O)[C@@H]2CCCN2C(=O)[C@@H](CC(C)C)NC(=O)CN(Cc2ccccc2)C(=O)[C@@H](C)N(C)C(=O)[C@H](Cc2ccccc2)NC1=O,-5.07
CC(C)C[C@@H]1NC(=O)[C@@H]2CCCN2C(=O)CN(Cc2ccccc2)C(=O)[C@H](CC(C)C)NC(=O)[C@@H](C)N(C)C(=O)[C@H]2CCCN2C(=O)[C@H](Cc2ccccc2)NC1=O,-5.94
CC(C)C[C@@H]1NC(=O)[C@H](C)N(C)C(=O)[C@H](Cc2ccccc2)NC(=O)CN(Cc2ccccc2)C(=O)[C@H]2CCCN2C(=O)[C@H](CC(C)C)N(C)C1=O,-5.31
CC(C)C[C@@H]1NC(=O)[C@@H]2CCCN2C(=O)[C@H](CC(C)C)N(C)C(=O)[C@H](CC(C)C)NC(=O)[C@H](C)N(C)C(=O)[C@@H]2CCCN2C(=O)[C@H](Cc2ccccc2)NC1=O,-5.91
CC(C)C[C@@H]1NC(=O)CN(Cc2ccccc2)C(=O)[C@H](C)N(C)C(=O)[C@H]2CCCN2C(=O)[C@H](Cc2ccccc2)NC(=O)[C@@H](CC(C)C)N(C)C(=O)[C@@H]2CCCN2C1=O,-5.52
CC(C)C[C@@H]1NC(=O)[C@H]2CCCN2C(=O)CN(Cc2ccccc2)C(=O)[C@H](CC(C)C)NC(=O)[C@@H](C)N(C)C(=O)[C@H](Cc2ccccc2)NC1=O,-6.46
CC(C)C[C@H]1NC(=O)[C@@H](C)N(C)C(=O)[C@H](Cc2ccccc2)NC(=O)[C@H](CC(C)C)N(C)C(=O)[C@H]2CCCN2C(=O)[C@@H](CC(C)C)NC1=O,-5.76
CC(C)C[C@@H]1NC(=O)[C@H]2CCCN2C(=O)[C@H](CC(C)C)N(C)C(=O)[C@H](CC(C)C)N(C)C(=O)[C@@H](C)N(C)C(=O)[C@@H]2CCCN2C(=O)[C@H](Cc2ccccc2)NC1=O,-6.21
CC(C)C[C@@H]1C(=O)N[C@@H](Cc2ccccc2)C(=O)N2CCC[C@H]2C(=O)N(C)[C@@H](C)C(=O)N(Cc2ccccc2)CC(=O)N[C@@H](Cc2ccccc2)CC(=O)N2CCC[C@@H]2C(=O)N1C,-5.77
CCCN1CC(=O)N(C)[C@H](CC(C)C)C(=O)N[C@@H](CC(C)C)C(=O)N2CCC[C@H]2C(=O)N(Cc2ccccc2)CC(=O)N[C@@H](Cc2ccccc2)C(=O)N2CCC[C@@H]2C1=O,-4.96
CC(C)C[C@@H]1NC(=O)C[C@H](Cc2ccccc2)NC(=O)[C@@H]2CCCN2C(=O)[C@H](Cc2ccccc2)NC(=O)[C@@H](CC(C)C)NC(=O)[C@@H]2CCCN2C(=O)[C@@H](CC(C)C)N(C)C1=O,-5.74
CC(C)C[C@@H]1NC(=O)[C@H]2CCCN2C(=O)[C@H](CC(C)C)N(C)C(=O)[C@@H](CC(C)C)N(C)C(=O)[C@H](C)N(C)C(=O)[C@H]2CCCN2C(=O)[C@H](Cc2ccccc2)NC1=O,-5.81
CCCN1CC(=O)N(C)[C@@H](CC(C)C)C(=O)N(Cc2ccccc2)CC(=O)N2CCC[C@H]2C(=O)N(C)[C@@H](CC(C)C)C(=O)N[C@@H](Cc2ccccc2)C(=O)N2CCC[C@H]2C1=O,-5.31
CC(C)C[C@@H]1C(=O)N[C@H](CC(C)C)C(=O)N2CCC[C@H]2C(=O)N[C@H](CC(C)C)C(=O)N[C@@H](Cc2ccccc2)C(=O)N(C)[C@@H](C)C(=O)N1C,-5.08
CC(C)C[C@@H]1NC(=O)C[C@H](Cc2ccccc2)NC(=O)[C@H](Cc2ccccc2)NC(=O)[C@@H](CC(C)C)N(C)C(=O)[C@@H]2CCCN2C(=O)[C@H](CC(C)C)NC1=O,-5.54
CC(C)C[C@@H]1NC(=O)C[C@H](Cc2ccccc2)NC(=O)[C@@H]2CCCN2C(=O)[C@H](Cc2ccccc2)NC(=O)[C@@H](CC(C)C)NC(=O)[C@H]2CCCN2C(=O)CN(Cc2ccccc2)C1=O,-5.85
CC(C)C[C@@H]1C(=O)N2CCC[C@@H]2C(=O)N(Cc2ccccc2)CC(=O)N[C@@H](Cc2ccccc2)C(=O)N2CCC[C@@H]2C(=O)N[C@@H](C)C(=O)N[C@H](CC(C)C)C(=O)N1C,-6.16
CCCN1CC(=O)N(C)[C@H](CC(C)C)C(=O)N[C@@H](CC(C)C)C(=O)N2CCC[C@H]2C(=O)N(C)[C@@H](CC(C)C)C(=O)N[C@@H](Cc2ccccc2)C(=O)N2CCC[C@H]2C1=O,-5.14
CC(C)C[C@@H]1C(=O)N[C@@H](Cc2ccccc2)C(=O)N[C@@H](C)C(=O)N[C@H](CC(C)C)C(=O)N[C@@H](Cc2ccccc2)CC(=O)N2CCC[C@@H]2C(=O)N1C,-6.29

Excerpt, the final 2 entries:

structure (SMILES)	PAMPA (log10 cm/s)
CCCN1CC(=O)N(C)[C@H](CC(C)C)C(=O)N[C@@H](CC(C)C)C(=O)N2CCC[C@H]2C(=O)N(C)[C@@H](CC(C)C)C(=O)N[C@@H](Cc2ccccc2)C(=O)N2CCC[C@H]2C1=O	-5.14
CC(C)C[C@@H]1C(=O)N[C@@H](Cc2ccccc2)C(=O)N[C@@H](C)C(=O)N[C@H](CC(C)C)C(=O)N[C@@H](Cc2ccccc2)CC(=O)N2CCC[C@@H]2C(=O)N1C	-6.29